These results are taken from patent US7122326B2 (Universite Louis Pasteur, priority 2001, dated 2006).

Series [1] relates to xanthurenic acid binding site(s). In words: [3H]-XA binding to synaptic membranes, without ions. Further details: species or system rat. The note with it: pH 7.4.
Series [2] has as its system xanthurenic acid receptor(s). It counts as cell-based.
The test system of series [3] is rat. The note with it: in vivo.

In the case of `O=C(O)c1cc(O)c2cccc(O)c2n1` [XA, xanthurenic acid], the “koff (dissociation constant)” value in series [1] was determined as 0.33±0.07 min^−. In addition, in series [2], the “inversion potential of the activated current” value was found to be 2.6±2.5 mV and the “inversion potential of the current activated in the presence of xanthurenic acid” value is given as −51.6±2.1. In addition, in series [3], the “EEG: epileptogenic or deep NREM sleep activity” value was “did not show evidence of “epileptogenic” or “deep NREM sleep” activity”.
